Patent publication US10023539B2, “Aryl-cyanoguanidine compounds” (Bayer Pharma Aktiengesellschaft, priority 2014, dated 2018)

Sequences of proteins named here, by UniProt entry; tags and fusion partners are left off. A change or cut given only in a name is not applied to a line headed by its entry.
UniProt Q9NRG4: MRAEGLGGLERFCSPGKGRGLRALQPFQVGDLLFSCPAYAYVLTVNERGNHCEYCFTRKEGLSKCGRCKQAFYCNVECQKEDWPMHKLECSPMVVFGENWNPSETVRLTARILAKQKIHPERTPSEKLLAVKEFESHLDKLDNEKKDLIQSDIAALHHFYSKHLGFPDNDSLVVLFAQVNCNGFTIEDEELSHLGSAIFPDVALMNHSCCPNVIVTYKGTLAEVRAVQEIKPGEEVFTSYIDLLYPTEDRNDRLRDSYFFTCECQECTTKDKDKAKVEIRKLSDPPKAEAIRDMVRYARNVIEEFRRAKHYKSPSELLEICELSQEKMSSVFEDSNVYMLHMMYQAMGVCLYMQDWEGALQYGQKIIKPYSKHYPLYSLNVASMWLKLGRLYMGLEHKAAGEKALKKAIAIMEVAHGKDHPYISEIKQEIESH

The compounds below were run against SMYD2 (Homo sapiens (Human), UniProt Q9NRG4) (assay: Scintillation Proximity Assay (SPA) for detection of SMYD2 enzymatic inhibition). Details: methylation of biotinylated p53 Peptide, 3H-SAM, full length SMYD2; read-out: IC50 [mol/l] (SPA Assay).
Type: biochemical
Description: 1.1 Scintillation Proximity Assay (SPA) for Detection of SMYD2 Enzymatic Inhibition
The SMYD2 full length enzyme was produced in-house by expression (with an N-terminal 6×His tag) in E. coli and purification by affinity chromatography on a Ni-NTA Sepharose column followed by a size exclusion chromatography step on a Superdex 200 16/60 column (GE Healthcare).
To this end, 100-fold concentrated compound solutions (in DMSO) were previously prepared by serial dilution (1:3.4) of 2 mM stocks in a clear low volume 384-well source microtiter plate (Greiner Bio-One), from which 50 nl of compound solutions were transferred into a white low volume test microtiter plate from the same supplier. […] The samples were then incubated for 15 min at 22° C. to allow pre-equilibration of the putative enzyme-inhibitor complexes before the start of the methylation reaction, which was initiated by the addition of 2.5 μl 2-fold concentrated solution (in assay buffer) of titrated S-Adenosyl-L-Methionine (3H-SAM, Perkin Elmer, final concentration: 60 nM) and p53 Peptide substrate (final concentration: 1.0 μM). The resulting mixture (5 μl final volume) was shortly centrifuged (2 min., 1500 rpm) and incubated at 22° C. during 30 min. Thereupon the reaction was stopped by adding 3 μl of Streptavidin PS SPA imaging beads (Perkin Elmer, final concentration of 3.12 μg/μl) and “cold” SAM (AK Scientific, 25 μM final concentration) for non-specific binding reduction. Plates containing the stopped reaction were sealed with transparent adhesive foil (Perkin Elmer), centrifuged (2 min., 1500 rpm), and further incubated for—at least—1 h at RT (or overnight at 4° C.) in order to allow the SPA signals to develop. […] IC50 values were calculated by fitting the normalized inhibition data to a 4-parameter logistic equation using the “Screener” analysis software from Genedata.

IC50 | Compound
53 nM | CCN(C(=O)CO)C1CN(/C(=N\C#N)Nc2cccc(CC(F)(F)F)c2)N=C1c1ccc(Cl)c(Cl)c1 (single isomer, unassigned) [Example 21.1, N-[1-{N′-cyano-N-[3-(2,2,2-trifluoroethyl)phenyl]carbamimidoyl}-3-(3,4-dichlorophenyl)-4,5-dihydro-1H-pyrazol-4-yl]-N-ethyl-2-hydroxyacetamide]
1620 nM | CCN(C(=O)CO)C1CN(/C(=N\C#N)Nc2cc(C(F)(F)F)ccc2CN2CCCC2)N=C1c1ccc(Cl)c(Cl)c1 (single isomer, unassigned) [Example 27.2, N-[1-{N′-cyano-N-[2-(pyrrolidin-1-Ylmethyl)-5-(trifluoromethyl)phenyl]carbamimidoyl}-3-(3,4-dichlorophenyl)-4,5-dihydro-1H-pyrazol-4-yl]-N-ethyl-2-hydroxyacetamide]
121 nM | CCN(C(=O)CO)C1CN(/C(=N\C#N)Nc2cccc(OC)c2)N=C1c1ccc(Cl)c(Cl)c1 (racemic) [Example 15, Rac-N-{1-[N′-cyano-N-(3-methoxyphenyl)carbamimidoyl]-3-(3,4-dichlorophenyl)-4,5-dihydro-1H-pyrazol-4-yl}-N-ethyl-2-hydroxyacetamide]
199 nM | CCN(C(=O)CCCN)C1CN(/C(=N\C#N)Nc2cccc(OC(F)F)c2)N=C1c1ccc(Cl)c(Cl)c1 (single isomer, unassigned) [Example 10.1, 4-amino-N-[1-{N′-cyano-N-[3-(difluoromethoxy)phenyl]carbamimidoyl}-3-(3,4-dichlorophenyl)-4,5-dihydro-1H-pyrazol-4-yl]-N-ethylbutanamide]
50 nM | CCN(C(=O)CO)C1CN(/C(=N\C#N)Nc2cccc(OC(F)(F)F)c2)N=C1c1ccc(Cl)c(Cl)c1 (single isomer, unassigned) [Example 13.2, N-[1-{N′-cyano-N-[3-(trifluoromethoxy)phenyl]carbamimidoyl}-3-(3,4-dichlorophenyl)-4,5-dihydro-1H-pyrazol-4-yl]-N-ethyl-2-hydroxyacetamide]
17600 nM | CCN(C(=O)CO)C1CN(/C(=N\C#N)Nc2cccc(OC)c2)N=C1c1ccc(Cl)c(Cl)c1 (single isomer, unassigned) [Example 15.1, N-{1-[N′-cyano-N-(3-methoxyphenyl)carbamimidoyl]-3-(3,4-dichlorophenyl)-4,5-dihydro-1H-pyrazol-4-yl}-N-ethyl-2-hydroxyacetamide]
754 nM | CCN(C(=O)CNC)C1CN(/C(=N\C#N)Nc2cccc(OC(F)F)c2)N=C1c1ccc(Cl)c(C)c1 (single isomer, unassigned) [Example 36.1, N-[3-(4-Chloro-3-methylphenyl)-1-{N′-cyano-N-[3-(difluoromethoxy)phenyl]carbamimidoyl}-4,5-dihydro-1H-pyrazol-4-yl]-N-ethyl-N2-methylglycinamide]
108 nM | CCN(C(=O)CO)C1CN(/C(=N\C#N)Nc2cc(F)cc(OC(F)(F)F)c2)N=C1c1ccc(Cl)c(Cl)c1 (racemic) [Example 25, Rac-N-[1-{N′-cyano-N-[3-fluoro-5-(trifluoromethoxy)phenyl]carbamimidoyl}-3-(3,4-dichlorophenyl)-4,5-dihydro-1H-pyrazol-4-yl]-N-ethyl-2-hydroxyacetamide]
17400 nM | CCN(C(=O)CO)C1CN(/C(=N\C#N)Nc2cccc(OC(F)F)n2)N=C1c1ccc(Cl)c(Cl)c1 (single isomer, unassigned) [Example 20.1, N-[1-{N′-cyano-N-[6-(difluoromethoxy)pyridin-2-yl]carbamimidoyl}-3-(3,4-dichlorophenyl)-4,5-dihydro-1H-pyrazol-4-yl]-N-ethyl-2-hydroxyacetamide]
358 nM | CCN(C(=O)CO)C1CN(/C(=N\C#N)Nc2cccc(OCCN(C)C)c2)N=C1c1ccc(Cl)c(Cl)c1 (racemic) [Example 16, Rac-N-[1-(N′-cyano-N-{3-[2-(dimethylamino)ethoxy]phenyl}carbamimidoyl)-3-(3,4-dichlorophenyl)-4,5-dihydro-1H-pyrazol-4-yl]-N-ethyl-2-hydroxyacetamide]
10300 nM | CCN(C(=O)CO)C1CN(/C(=N\C#N)Nc2cc(F)cc(OC(F)(F)F)c2)N=C1c1ccc(Cl)c(Cl)c1 (single isomer, unassigned) [Example 25.2, N-[1-{N′-cyano-N-[3-fluoro-5-(trifluoromethoxy)phenyl]carbamimidoyl}-3-(3,4-dichlorophenyl)-4,5-dihydro-1H-pyrazol-4-yl]-N-ethyl-2-hydroxyacetamide]
84.5 nM | CCN(C(=O)CO)C1CN(/C(=N\C#N)Nc2cccc(OC(F)F)c2)N=C1c1ccc(Cl)c(C)c1 (racemic) [Example 33, Rac-N-[3-(4-chloro-3-methylphenyl)-1-{N′-cyano-N-[3-(difluoromethoxy)phenyl]-carbamimidoyl}-4,5-dihydro-1H-pyrazol-4-yl]-N-ethyl-2-hydroxyacetamide]
119 nM | CCN(C(=O)CO)C1CN(/C(=N\C#N)Nc2cccc(OC(F)F)n2)N=C1c1ccc(Cl)c(Cl)c1 (single isomer, unassigned) [Example 20.2, N-[1-{N′-cyano-N-[6-(difluoromethoxy)pyridin-2-yl]carbamimidoyl}-3-(3,4-dichlorophenyl)-4,5-dihydro-1H-pyrazol-4-yl]-N-ethyl-2-hydroxyacetamide]
1070 nM | CCN(C(=O)CO)C1CN(/C(=N\C#N)Nc2cccc(CC(F)(F)F)c2)N=C1c1ccc(Cl)c(Cl)c1 (racemic) [Example 21, Rac-N-[1-{N′-cyano-N-[3-(2,2,2-trifluoroethyl)phenyl]carbamimidoyl}-3-(3,4-dichlorophenyl)-4,5-dihydro-1H-pyrazol-4-yl]-N-ethyl-2-hydroxyacetamide]
286 nM | CCN(C(=O)CCN)C1CN(/C(=N\C#N)Nc2cccc(OC(F)F)c2)N=C1c1ccc(Cl)c(Cl)c1 (racemic) [Example 6, Rac-N-[1-{N′-cyano-N-[3-(difluoromethoxy)phenyl]carbamimidoyl}-3-(3,4-dichlorophenyl)-4,5-dihydro-1H-pyrazol-4-yl]-N-ethyl-beta-alaninamide]
32 nM | CC(C)[C@@](C)(N)C(=O)NC1CN(/C(=N\C#N)Nc2cccc(OC(F)F)c2)N=C1c1ccc(Cl)c(Cl)c1 (stereo partly drawn) [Example 38, N-[1-{N′-cyano-N-[3-(difluoromethoxy)phenyl]carbamimidoyl}-3-(3,4-dichlorophenyl)-4,5-dihydro-1H-pyrazol-4-yl]-3-methyl-D-isovalinamide]
3830 nM | CCN(C(=O)CCCN)C1CN(/C(=N\C#N)Nc2cccc(OC(F)F)c2)N=C1c1ccc(Cl)c(Cl)c1 (single isomer, unassigned) [Example 10.2, 4-amino-N-[1-{N′-cyano-N-[3-(difluoromethoxy)phenyl]carbamimidoyl}-3-(3,4-dichlorophenyl)-4,5-dihydro-1H-pyrazol-4-yl]-N-ethylbutanamide]
18400 nM | CCN(C(=O)CO)C1CN(/C(=N\C#N)Nc2cccc(OC(F)F)c2)N=C1c1ccc(Cl)c(C)c1 (single isomer, unassigned) [Example 33.1, N-[3-(4-chloro-3-methylphenyl)-1-{N′-cyano-N-[3-(difluoromethoxy)phenyl]carbamimidoyl}-4,5-dihydro-1H-pyrazol-4-yl]-N-ethyl-2-hydroxyacetamide]
206 nM | CCN(C(=O)CO)C1CN(/C(=N\C#N)Nc2cc(F)cc(OC(F)(F)F)c2)N=C1c1ccc(Cl)c(Cl)c1 (single isomer, unassigned) [Example 25.1, N-[1-{N′-cyano-N-[3-fluoro-5-(trifluoromethoxy)phenyl]carbamimidoyl}-3-(3,4-dichlorophenyl)-4,5-dihydro-1H-pyrazol-4-yl]-N-ethyl-2-hydroxyacetamide]
763 nM | CCN(C(=O)CO)C1CN(/C(=N\C#N)Nc2cccc(CC(F)(F)F)c2)N=C1c1ccc(Cl)c(Cl)c1 (single isomer, unassigned) [Example 21.2, N-[1-{N′-cyano-N-[3-(2,2,2-trifluoroethyl)phenyl]carbamimidoyl}-3-(3,4-dichlorophenyl)-4,5-dihydro-1H-pyrazol-4-yl]-N-ethyl-2-hydroxyacetamide]
22.9 nM | CCN(C(=O)CNC)C1CN(/C(=N\C#N)Nc2cccc(OC(F)F)c2)N=C1c1ccc(Cl)c(C)c1 (single isomer, unassigned) [Example 36.2, N-[3-(4-Chloro-3-methylphenyl)-1-{N′-cyano-N-[3-(difluoromethoxy)phenyl]carbamimidoyl}-4,5-dihydro-1H-pyrazol-4-yl]-N-ethyl-N2-methylglycinamide]
> 20000 nM | CCN(C(=O)CO)C1CN(/C(=N\C#N)Nc2cc(OC(F)F)ccc2OC)N=C1c1ccc(Cl)c(Cl)c1 (single isomer, unassigned) [Example 18.1, N-[1-{N′-cyano-N-[5-(difluoromethoxy)-2-methoxyphenyl]carbamimidoyl}-3-(3,4-dichlorophenyl)-4,5-dihydro-1H-pyrazol-4-yl]-N-ethyl-2-hydroxyacetamide]
